Assay results as given in ChEMBL document CHEMBL1132980, “1,2,4-Triazolo[4,3-a]quinoxalin-1-one: a versatile tool for the synthesis of potent and selective adenosine receptor antagonists” (J Med Chem, 2000).

System: Adenosine receptor A2a (Bos taurus)
Test: Binding affinity towards adenosine A2A receptor of bovine striatal membrane in presence of [3H]-CGS- at a concentration of 20 uM

SMILES	inhibition
COc1ccc(-n2nc3c(=O)[nH]c4ccccc4n3c2=O)cc1	0%
Cc1ccc(N2CN3C(=N2)C(=O)Nc2ccccc23)cc1	18%
O=c1[nH]c2ccccc2n2c(=O)n(-c3ccc(Cl)cc3)nc12	5.5%
CC(=O)Nc1nc2ccccc2n2c(=O)n(-c3ccccc3)nc12	70%
